Patent US20030219400A1 (priority 2002, published 2003)

System: patients coinfected with Babesia microti and Borrelia burgdorferi

O=C1C(O)=C([C@H]2CC[C@H](c3ccc(Cl)cc3)CC2)C(=O)c2ccccc21 [atovaquone]
adverse effects (first few weeks of atovaquone therapy): no adverse effects noted other than mild worsening of symptoms | patients who stopped treatment at 9 weeks, feeling no improvement (in vivo): 1 patient | patients with complete resolution of longstanding symptoms (in vivo): 5 patients
